From ChEMBL document CHEMBL4706586, “Structure-activity relationships for a series of (Bis(4-fluorophenyl)methyl)sulfinylethyl-aminopiperidines and -piperidine amines at the dopamine transporter: Bioisosteric replacement of the piperazine improves metabolic stability” (Eur J Med Chem, 2020)

Test: Displacement of [3H]-Nisoxetine from NET in Sprague-Dawley rat frontal cortex membrane after 180 mins by microbeta scintillation counting method
Format: cell membranes
Method in brief: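 Male Sprague-Dawley rat frontal cortex membranes in 50 mM Tris, 300 mM NaCl, 5 mM KCl pH 7.4, 8.0 mg/tube wet weight; [3H]nisoxetine 0.5 nM final; 180 min at 0–4 °C; nonspecific 10 μM desipramine.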

With [O-][S+](CCN1CCN(CC(O)Cc2ccccc2)CC1)C(c1ccc(F)cc1)c1ccc(F)cc1 (configuration not stated) the Ki was 8.24 µM.
CC(O)CN1CCN(CCSC(c2ccc(F)cc2)c2ccc(F)cc2)CC1 (configuration not stated) showed a Ki of 11.8 µM.
